# Source: PubChem (National Center for Advancing Translational Sciences (NCATS))
# TDP1 cell noCPT: qHTS for Inhibitors of human tyrosyl-DNA phosphodiesterase 1 (TDP1): qHTS in cells in absence of CPT | DT40 Tdp1-/- hTDP1 cells, no CPT, ATP luminescence, 48 h | Potency, µM (doses to about 46.2 µM), without a hit: top-dose activity change, negative = growth inhibition, most hits filed as inhibitors | 420,000 tested, 15% active | AID 686978, 2013; further: potency means the concentration at half of the fitted maximal effect; on the % scale 0 is the no-effect control and ±100 the full control effect; nearly all actives have a fitted effect of over 55% in size
#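 A cellular qHTS used chicken DT40 cells lacking endogenous Tdp1 but carrying stably transfected human TDP1. Compounds were applied without camptothecin, and cell growth kinetics were judged by ATP-dependent luminescence after ≥48 hr.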
# miR-21 reporter: raises the signal of a miR-21 reporter; HeLa miR-21 FLuc reporter, luciferase, 48 h; Potency, µM (top dose mostly 38.3 µM), for inactives: at the highest dose reporter change, positive = more light; AID 2288; 340,000 tested, under 10 active; active = well fitted rising curve with a large enough effect; inconclusive = small, poorly fitted or top-dose-only effect; inactive = no such curve, though single readings can be large or run the other way;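 note: % of control where 0% means no effect; miR-21 action dims this reporter so a rising signal means less miR-21 action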
#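 Luminescence from a firefly luciferase reporter carrying a miR-21 binding site downstream, stably expressed under a CMV promoter in HeLa cells that make miR-21 endogenously, reports miRNA modulation after 48 h compound exposure up to approximately 40uM final.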
# TDP1 cell CPT: DT40-hTDP1 cell growth loss with CPT; chicken DT40 Tdp1-/-;hTDP1 cells + 20 nM CPT, ATP luminescence, 48 h; Potency, µM (top dose mostly 46.2 µM), for inactives: at the highest dose activity change, negative = growth inhibition, most hits filed as inhibitors; 420,000 tested, 12% active; further: potency means the concentration at half of the fitted maximal effect; on the % scale 0 is the no-effect control and ±100 the full control effect; nearly all actives have a fitted effect of over 55% in size
#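 Chicken DT40 Tdp1-/- cells complemented with human TDP1, 400 cells/well, exposed to compounds plus 20 nM camptothecin for at least 48 h at 37 C; viability read as ATP content by CellTiter-Glo luminescence.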
# TDP1 block: TDP1 (human) enzyme inhibition. Q9NUW8. recombinant TDP1, AlphaScreen DNA substrate cleavage. Potency, µM (titrated, usually from 130 µM), without a hit: top-dose activity change, negative = inhibition, hits mostly inhibitors. 350,000 tested, 0.28% active; further: potency means the concentration at half of the fitted maximal effect; on the % scale 0 is the no-effect control and ±100 the full control effect; nearly all actives have a fitted effect of over 40% in size
#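 AlphaScreen read-out: signal falls as enzyme removes the 3' tyrosine-FITC from a 5'-biotinylated DNA oligo (15 nM, 5 min, RT). Enzyme was E. coli-made recombinant Tdp1 at 1 nM, exposed to compound for 15 min beforehand; beads 10 ug/ml, 10 min.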
# uPA surface inh: cell surface uPA generation inhibition; AID 540303; 330,000 tested, 0.31% active; Potency, µM (titrated, usually from 38.3 µM), for the others: at the highest dose activity change, negative = inhibition, hits mostly inhibitors; cell surface uPA generation assay, qHTS; active means well fitted inhibition curve with a large enough effect; inconclusive means small, poorly fitted or top-dose-only effect; inactive means no such curve, though single readings can be large or run the other way; tested in mouse RAW 264.7 cells; further: potency means the concentration at half of the fitted maximal effect; on the % scale 0 is the no-effect control and ±100 the full control effect; nearly all actives have a fitted effect of over 55% in size
# Starred values were filed as active, the others as inactive; ? = inconclusive; nt = no result. Only some compounds are listed: those with a hit (about 16% of all), similar ones and a draw of the others. Unless noted, the call rests on the fitted dose curve; in most records, active means well fitted curve in the direction sought with a large enough effect; inconclusive means small, poorly fitted or top-dose-only effect, or another doubt; inactive means no such curve, though single readings can be large; an effect the other way counts as inactive or inconclusive.
# Letters – A = TDP1 cell noCPT; B = miR-21 reporter; C = TDP1 cell CPT; D = TDP1 block; E = uPA surface inh
canonical_smiles: CN(C(=O)c1ccc2c(c1)N(Cc1ccc(F)cc1)C(=O)c1ccccc1S2(=O)=O)C1CCCCC1
  A: 16µM*; B: 18%; C: 23µM*; D: 8%; E: nt
canonical_smiles: Cc1ccccc1Cn1nnc2sc3c(c2c1=O)CCCC3
  A: ?; B: -15%; C: ?; D: 0%; E: nt
canonical_smiles: Cc1cccc(Cn2nnc3c2C(=O)c2ccccc2C3=O)c1
  A: 4.6µM*; B: 29%; C: 9.2µM*; D: 3%; E: 0%
canonical_smiles: Cc1ccccc1Cn1nnc2c1C(=O)c1ccccc1C2=O
  A: 6.5µM*; B: nt; C: 8.2µM*; D: nt; E: -4%
canonical_smiles: O=C(c1ccc(-n2cncn2)c([N+](=O)[O-])c1)N1CCN(S(=O)(=O)c2ccc(F)c(F)c2)CC1
  A: ?; B: nt; C: -25%; D: 7%; E: -3%
canonical_smiles: CCCOc1ccc(OCCn2nc(C(=O)O)c3ccccc3c2=O)cc1
  A: 13%; B: -12%; C: 25%; D: 0%; E: -4%
canonical_smiles: Cc1ccc(NC(=O)NCc2ccc3c(c2)OCO3)c(C)c1
  A: -3%; B: -1%; C: 1%; D: -3%; E: 5%
canonical_smiles: Cc1ccc(NC(=S)NCc2ccc(F)cc2)c(C)c1
  A: -20%; B: -4%; C: -15%; D: 4%; E: 2%
canonical_smiles: Cc1ccc(NC(=S)NCc2ccc3c(c2)OCO3)c(C)c1
  A: 21µM*; B: -14%; C: ?; D: 3%; E: 0%
canonical_smiles: Cc1ccc(NC(=S)NCc2ccc3c(c2)cc(C)n3C)c(C)c1
  A: 23µM*; B: -7%; C: 23µM*; D: 1%; E: 16%
canonical_smiles: CC(C)(C)NC(=O)C(c1ccncc1)N(C(=O)c1csnn1)c1cccc2ccccc12 (configuration not stated)
  A: -11%; B: 0%; C: 7%; D: 1%; E: nt
canonical_smiles: O=C1Nc2c(c(=O)[nH]c(=O)n2Cc2ccccc2)C1(NS(=O)(=O)c1ccccc1)C(F)(F)F (configuration not stated)
  A: ?; B: -5%; C: -15%; D: 3%; E: 4%
canonical_smiles: O=S(=O)(c1ccc(Cl)c(NC(=S)N/N=C/c2ccc(O)cc2)c1)N1CCOCC1
  A: 4.6µM*; B: -1%; C: 4.1µM*; D: 8%; E: -14%
canonical_smiles: C/C(=N\NC(=S)Nc1cc(S(=O)(=O)N2CCOCC2)ccc1Cl)c1ccc(N2CCOCC2)cc1
  A: 2.6µM*; B: -15%; C: 2.9µM*; D: 11%; E: -23%
canonical_smiles: C/C(=N\NC(=S)Nc1ccc(C)c(C)c1)c1ccc(N2CCOCC2)cc1
  A: 5.8µM*; B: -21%; C: 5.8µM*; D: 5%; E: 11%
canonical_smiles: N#Cc1ccc(/C=N/NC(=S)Nc2ccc(S(=O)(=O)N3CCOCC3)cc2)cc1
  A: 21µM*; B: -3%; C: ?; D: nt; E: 1%
canonical_smiles: O=S(=O)(c1ccc(NC(=S)N/N=C/c2ccc(O)c(O)c2)cc1)N1CCOCC1
  A: -24%; B: -29%; C: -10%; D: 6%; E: -7%
canonical_smiles: COc1ccc2cc(/C(C)=N/NC(=S)Nc3cc(S(=O)(=O)N4CCOCC4)ccc3N3CCOCC3)ccc2c1
  A: nt; B: -17%; C: nt; D: 8%; E: nt
canonical_smiles: COc1ccc(OCCC(=O)OCC(=O)NC2CCCCCCC2)cc1
  A: 4%; B: -5%; C: -28%; D: 0%; E: 2%
canonical_smiles: COCCn1c(C)cc(/C=C2/NC(=O)N(Cc3ccc(C)cc3)C2=O)c1C
  A: ?; B: -27%; C: -16%; D: nt; E: 6%
canonical_smiles: CCC(C)Sc1ccc([C@@H]2[C@@H]3C(=O)N(C)C(=O)[C@@H]3[C@]3(C(=O)OC)CCCCN23)cc1 (some centres not stated)
  A: ?; B: nt; C: 18µM*; D: 0%; E: 5%
canonical_smiles: CCC(C)Sc1ccc([C@@H]2[C@@H]3C(=O)N(CC)C(=O)[C@@H]3[C@]3(C(=O)OC)CCCCN23)cc1 (some centres not stated)
  A: 21µM*; B: nt; C: ?; D: -3%; E: 7%
canonical_smiles: CCC(C)Sc1ccc([C@@H]2[C@H]3C(=O)N(CC)C(=O)[C@H]3[C@]3(C(=O)OC)CCCN23)cc1OC (some centres not stated)
  A: 23µM*; B: nt; C: 23µM*; D: 6%; E: -1%
canonical_smiles: CCn1c(-c2ccccc2F)nc2cc(C(=O)N3CCCC(CO)C3)cc(NC(C)=O)c21 (configuration not stated)
  A: 9%; B: nt; C: 1%; D: nt; E: nt
canonical_smiles: CCOC(=O)c1sc(NC(=O)c2nc(SCC)ncc2Cl)c(C(=O)OCC)c1C
  A: -16%; B: -1%; C: -2%; D: 9%; E: nt
canonical_smiles: CCN=c1scc(C)n1/N=C/c1ccc(O)c(O)c1O
  A: 7.3µM*; B: -11%; C: 15µM*; D: 6%; E: 1%

# In the list so far, 3 have an aryl methoxy group:
# Letters – A = TDP1 cell noCPT; B = miR-21 reporter; C = TDP1 cell CPT; D = TDP1 block; E = uPA surface inh
canonical_smiles: COc1ccc2cc(/C(C)=N/NC(=S)Nc3cc(S(=O)(=O)N4CCOCC4)ccc3N3CCOCC3)ccc2c1
  A: nt; B: -17%; C: nt; D: 8%; E: nt
canonical_smiles: COc1ccc(OCCC(=O)OCC(=O)NC2CCCCCCC2)cc1
  A: 4%; B: -5%; C: -28%; D: 0%; E: 2%
canonical_smiles: CCC(C)Sc1ccc([C@@H]2[C@H]3C(=O)N(CC)C(=O)[C@H]3[C@]3(C(=O)OC)CCCN23)cc1OC (some centres not stated)
  A: 23µM*; B: nt; C: 23µM*; D: 6%; E: -1%
